The record followed here is patent publication US20170001988A1, “PIPERIDINE AND PIPERAZINE DERIVATIVES AND THEIR USE IN TREATING VIRAL INFECTIONS AND CANCER” (THE UNITED STATES OF AMERICA, AS REPRESENTED BY THE …, priority 2013, published 2017).

One data set is described as follows: in vitro. The note with it: human.
For another data set, the system named is Huh7.5.1 cells. As to conditions: human.

A value given as a limit tells only on which side of the number the result lay.

`CCN1CCN(C(c2ccccc2)c2ccc(Br)cc2)CC1` (racemic) [Br, H, Et (R,S), 1-((4-Bromophenyl)(phenyl)methyl)-4-ethylpiperazine] showed a CC50 in “in vitro” of 35.2 ± 1.4 µM.

In the data set on Huh7.5.1 cells, `Brc1ccc(C(c2ccccc2)N2CCNCC2)cc1` (centres unmarked) [Br, H, H, 1-((4-bromophenyl)(phenyl)methyl)piperazine] registered a CC50 of 7.93 ± 0.83 µM.

`NCCOCCOCCOCCOCCN1CCN(C(c2ccc(Cl)cc2)c2ccc(Cl)cc2)CC1` [Cl, Cl, (CH2CH2O)4CH2CH2NH2, 14-(4-(bis(4-Chlorophenyl)methyl)piperazin-1-yl)-3,6,9,12-tetraoxatetradecan-1-amine] had a CC50 with Huh7.5.1 cells of 4.43 ± 0.12 µM.

For `CN1CCN(C(c2ccc(Cl)cc2)c2ccc(Cl)cc2)CC1` [Cl, Cl, Me, 1-(bis(4-Chlorophenyl)methyl)-4-methylpiperazine], the CC50 in the data set on Huh7.5.1 cells is 21.3 ± 2.3 µM. In the case of `CN1CCN(C(c2ccccc2)c2ccccc2)CC1` [H, H, Me, 1-Benzhydryl-4-methylpiperazine], in the data set “in vitro”, the CC50 is > 100 µM.
